Reference: patent US20170007620A1, “Method of replenishing steroid hormones in neutered mammals comprising administration of dehydroepiandrosterone (DHEA) and specific metabolites in order to increase steroid hormone levels from those of neutered mammals associated with high cancer risk, to steroid hormone levels of gonadally-intact …” (priority 2015, published 2017)

Tested on: testosterone
Experiment: Serum testosterone in neutered male dogs before and after DHEA-mediated EGSS (FIG. 2)
Conditions: DHEA 10 mg/kg p.o.

For `C[C@]12CC[C@H](O)CC1=CC[C@@H]1[C@@H]2CC[C@]2(C)C(=O)CC[C@@H]12` [DHEA, Dehydroepiandrosterone], the testosterone level was “increases”.
